# Patent US6777578B2, “Hydroxyphenstatin and the prodrugs thereof” (Arizona Board of Regents, priority 2000, dated 2004)
# Test: Solubility in distilled water
# Format: physicochemical
# Conditions: distilled water at 25° C.
substance,measurement,value
Potassium Hydroxyphenstatin Diphosphate [Compound 6g],solubility,> 100 mg/mL
